This series has as its system rats. The note with it: overdose.

Turning to `Cc1cc2c(s1)Nc1ccccc1N=C2N1CCN(C)CC1` [2-methyl-4-(4-methyl-1-piperazinyl)-10H-thieno[2,3-b][1,5]benzodiazepine], the salivation result is on record as “significant salivation”.

Source of the values: patent publication US6506746B2, “Method for treating cognitive dysfunction” (Eli Lilly and Company, priority 1997, dated 2003).
